Values of other authors as cited in patent US8404449B2, “Stochastic sensing through covalent interactions” (dated 2013).

Details: given in comparison; for DTT the first pKa; cited from earlier work

2-mercaptoethanol
pKa: 9.5
